Data published in PubChem BioAssay AID720711 (National Center for Advancing Translational Sciences (NCATS), 2013).
The entries are a selection whose mix differs from that of the whole data set. The source made the active and inactive calls. Calls follow the shape of the dose curve; as a rule, active = well fitted activation curve with a large enough effect; inconclusive = small, poorly fitted or top-dose-only effect; inactive = no such curve, though single readings can be large or run the other way.

The chains behind the UniProt entries cited, without tags or fusion partners. Where a name states a change or a piece, a line headed by the entry shows the natural chain unless it says otherwise.
UniProt Q8WZA2: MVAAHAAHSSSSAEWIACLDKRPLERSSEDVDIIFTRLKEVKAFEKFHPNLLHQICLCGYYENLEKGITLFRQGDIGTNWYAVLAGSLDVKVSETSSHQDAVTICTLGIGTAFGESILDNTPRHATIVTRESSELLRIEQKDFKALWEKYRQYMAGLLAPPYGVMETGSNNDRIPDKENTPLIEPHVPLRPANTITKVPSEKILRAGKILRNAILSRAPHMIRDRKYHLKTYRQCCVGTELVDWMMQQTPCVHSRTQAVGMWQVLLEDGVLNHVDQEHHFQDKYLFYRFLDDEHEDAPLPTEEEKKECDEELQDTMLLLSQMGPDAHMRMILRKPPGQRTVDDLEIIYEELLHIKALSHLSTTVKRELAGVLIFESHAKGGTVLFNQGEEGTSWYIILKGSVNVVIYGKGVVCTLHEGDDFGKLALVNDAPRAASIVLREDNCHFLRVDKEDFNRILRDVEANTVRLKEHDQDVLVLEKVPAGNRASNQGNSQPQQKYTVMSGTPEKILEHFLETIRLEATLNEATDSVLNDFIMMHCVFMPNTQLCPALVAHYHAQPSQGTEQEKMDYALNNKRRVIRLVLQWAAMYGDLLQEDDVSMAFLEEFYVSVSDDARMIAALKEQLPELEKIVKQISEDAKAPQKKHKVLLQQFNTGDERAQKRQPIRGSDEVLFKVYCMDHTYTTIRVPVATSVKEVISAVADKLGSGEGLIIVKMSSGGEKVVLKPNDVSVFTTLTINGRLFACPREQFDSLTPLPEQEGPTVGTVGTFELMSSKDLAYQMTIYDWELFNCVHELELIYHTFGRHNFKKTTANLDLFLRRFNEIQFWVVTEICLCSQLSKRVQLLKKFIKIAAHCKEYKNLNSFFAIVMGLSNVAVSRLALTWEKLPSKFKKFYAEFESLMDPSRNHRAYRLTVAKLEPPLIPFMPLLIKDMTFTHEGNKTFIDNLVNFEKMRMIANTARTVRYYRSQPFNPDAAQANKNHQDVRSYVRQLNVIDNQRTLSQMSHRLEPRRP

The compounds below were run against Rap guanine nucleotide exchange factor 4 (Homo sapiens) (UniProt Q8WZA2) (assay: qHTS for Agonist of cAMP-regulated guanine nucleotide exchange factor 4 (EPAC2): primary screen). Conditions: biochemical qHTS, 100% = 6.5 mM cAMP response; at 154 µM (top of the series).
Excerpt: In multi-cellular eukaryotic organisms, the effects of cAMP are transduced by two ubiquitously-expressed intracellular cAMP receptors, the classic protein kinase A/cAMP-dependent protein kinase (PKA/cAPK) and the more recently discovered exchange protein directly activated by cAMP/cAMP-regulated guanine nucleotide exchange factor (EPAC/cAMP-GEF). Both PKA and EPAC are ubiquitously expressed in all tissues, and an increase in intracellular cAMP levels will lead to the activation of both PKA and EPAC. Therefore, careful dissections of the individual role and relative contribution of EPAC and PKA within the overall cAMP signaling in various model systems are critical for further elucidating the mechanism of cAMP signaling. To date no EPAC-specific antagonists and agonist, as well as isoform-specific agonists have been reported, and developing EPAC-specific pharmacological probes to determine the physiological functions that EPAC play in the overall cAMP-mediated signaling remains a major challenge within the research field. Furthermore, identified regulators of EPAC may lead to new mechanism-based therapeutic strategies specifically targeting the EPAC / cAMP-signaling components as EPAC has been implicated to play important roles in major human pathological conditions such as diabetes, heart disease, and cancer.
This qHTS will be used to screen the Molecular Libraries Small Molecule Repository (MLSMR) as a concentration-titration series using the NCGC unique quantitative screening (qHTS) platform to find activators for EPAC2. In addition, this assay will also be used as a counterscreen for the EPAC1 qHTS. This fluorescent based assay is developed and validated for EPAC2 that measures exchange using EPAC effector Rap1 complex with BODIPY-GDP, a GDP analog with a tethered fluorophores. Activators are identified by monitoring the change in fluorescence signal as the exchanged free BODIPY-GDP has a reduced fluorescence compared to Rap1-bound BODIPY-GDP. […] in signal (activation) is the desired outcome for the EPAC2 agonist while no activity in this assay is desired for the EPAC1 agonist counterscreen.
[1] de Rooij, J., Zwartkruis, F. J., Verheijen, M. H., Cool, R. H., Nijman, S. M., Wittinghofer, A., and Bos, J.L. (1998) Nature 396, 474-477
[2] Kawasaki, H., Springett, G. M., Mochizuki, N., Toki, S., Nakaya, M., Matsuda, M., Housman, D. E., and Graybiel, A. M. (1998) Science 282, 2275-2279
NIH Chemical Genomics Center [NCGC]
NIH Molecular Libraries Probe Centers Network [MLPCN]
Assay Submitter (PI): Xiaodong Cheng, The University of Texas, Medical Branch
Briefly, three uL of reagents (100 nM EPAC2, 250 nM RAP1B-BODIPY-GDP, 50 uM GDP) were dispensed into a 1536-well Greiner black solid-bottom medium binding assay plate. Controls and test compounds (23 nL) were transferred to the plate via a Kalypsys pin tool equipped with a 1536-pin array. The plates were centrifuged at 1,000 rpm for 15 seconds followed by 5 minute incubation at room temperature. The assay plates were read at 5 minute intervals for 30 minutes in the ViewLux plate reader using 480nm excitation and 540nm emission filters. The results were normalized to the agonist positive control of 6.5 mM cAMP.
Also: nearly all actives have a fitted effect of over 50% in size.

| SMILES | activation |
| --- | --- |
| C[N+]1=C2C=CC=CC=C2SC12C([N+](=O)[O-])=CC([N+](=O)[O-])=C[C-]2[N+](=O)[O-] (centres undefined) | inactive: -10.5% |
| Nc1ccc([As](=O)(O)c2ccc(N)cc2)cc1 | inactive: 1.38% |
| CCN(/C(=N/P(=O)(N1CCOCC1)N1CCOCC1)N1CCOCC1)c1ccc(OC)cc1 | inactive: 0.742% |
| CN(C)C(=O)OCCc1n(C)cc[n+]1C | inactive: 4.75% |
| CC(C)=N/N=C(\N)N[N+](=O)[O-] | inactive: 6.01% |
| CC(C)c1nc(Nc2ccccc2)n(P(=O)(N(C)C)N(C)C)n1 | inactive: -0.965% |
| c1cc(-c2nn[nH]n2)ccc1-c1nn[nH]n1 | inactive: 3.09% |
| CC1CCN(C(=O)Oc2c(Cl)cc(Cl)c3cccnc23)CC1 | inactive: -19.4% |
| COc1ccc(C2=NCC(CBr)S2)cc1 (centres undefined) | inactive: 4.5% |
| CC(=O)N1C2C3N(C(C)=O)C1C1N(C(C)=O)C(C(N1C(C)=O)N3C(C)=O)N2C(C)=O | inactive: -19.5% |
| O=[N+]([O-])c1cccc2n[nH]nc12 | inactive: 10.9% |
| O=[N+]([O-])c1cc([N+](=O)[O-])c(CCNc2ccccc2)c([N+](=O)[O-])c1 | inactive: -1.04% |
| CCc1nc2c(n1)c1c(non1O)c1c2no[n+]1[O-] | inactive: -9.64% |
| Cc1ccc(NP(=O)(Oc2ccccc2)Oc2ccccc2)nc1 | inactive: 1.05% |
| CC(C)(C)C(=O)NC(Sc1ccncn1)C(Cl)(Cl)Cl (centres undefined) | inactive: 3.13% |
| O=[N+]([O-])c1ncn(CCn2ncnc2[N+](=O)[O-])n1 | inactive: 4.43% |
| O=[N+]([O-])c1cccc(NC2=NCC(CBr)S2)c1 (centres undefined) | inactive: 7.04% |
| COC(=O)C1(C)COP(=O)(Nc2ccccc2)OC1 (centres undefined) | inactive: 4.83% |
| O=C(O)CNc1ccc([As](=O)(O)O)cc1 | inactive: 11.4% |
| O=P1(N(CCCl)CCCl)OCCCS1 (centres undefined) | inactive: 5.24% |
| O=C(Nc1cc([As](=O)(O)O)ccc1O)c1ccccc1 | inactive: 9.31% |
| CCN(N=Nc1nonc1N)c1nonc1N | inactive: 3.33% |

| SMILES | activation |
| --- | --- |
| Nc1cccc2ccc([As](=O)(O)O)cc12 | inactive: -0.852% |
| CCCC1OP(N)(=O)OCC1CC (centres undefined) | inactive: -1.15% |
| O=C(O)c1ccccc1[As](=O)(O)O | inactive: 7.55% |
| CC(=O)Nc1ccc([As](=O)(O)O)cc1 | inactive: -5.85% |
| CN(C)P(=O)(N(C)C)n1c(Nc2ccccc2)nnc1-c1ccccc1 | inactive: 14.5% |
| O=P(Nc1nc2ccc(Cl)cc2s1)(c1ccccc1)c1ccccc1 | inactive: 6.62% |
| CN(C(=O)Cc1ccc(Cl)c(Cl)c1)[C@H]1CCCC[C@@H]1N1CCCC1 | inactive: 2.27% |
| Cc1ccc(NP(=O)(Oc2ccccc2F)Oc2ccccc2F)nc1 | inactive: 16.7% |
| CCOP(=O)(Nc1ccccc1)OCC | inactive: -2.84% |
| Cc1cc(SC(NC(=O)c2ccc(F)cc2)C(Cl)(Cl)Cl)ncn1 (centres undefined) | inactive: -2.61% |
| CC(C)CC(=O)NC(Sc1ccc(Cl)cc1)C(Cl)(Cl)Cl (centres undefined) | inactive: -1.45% |
| Nc1cc(N)c2nonc2c1[N+](=O)[O-] | inactive: 5.21% |
| O=C(NC(Sc1ccncn1)C(Cl)(Cl)Cl)c1ccccc1 (centres undefined) | inactive: -6.8% |
| Oc1ccccc1CNc1ccccn1 | inactive: 16.2% |
| O=[N+]([O-])C1C(O)C(O)C([N+](=O)[O-])C(O)C1O (centres undefined) | inactive: 13.2% |
| NC(=O)c1cc([N+](=O)[O-])cc([N+](=O)[O-])c1N | inactive: 0.531% |
| Cc1ccc(N/C(=N/P(=O)(N2CCOCC2)N2CCOCC2)N2CCOCC2)cc1 | inactive: 11.8% |
| CN(C(=O)Cc1ccc(Cl)c(Cl)c1)[C@H]1CCCC[C@H]1N1CCCC1 | inactive: 3.65% |
| Cc1ccc(OP(=O)(Nc2nccs2)Oc2ccc(C)cc2)cc1 | inactive: -0.357% |
| COc1ccccc1OP(=O)(Nc1ccc(C)cn1)Oc1ccccc1OC | inactive: 7.86% |
| Clc1ccc(Cl)c(NC2=NCC(CBr)S2)c1 (centres undefined) | inactive: 6.42% |
| CN1CCCC(OC(=O)C(c2ccccc2)c2ccccc2)C1 (centres undefined) | inactive: 0.0383% |

| SMILES | activation |
| --- | --- |
| COC(=O)C1(C)COP(=O)(NCc2ccccc2)OC1 (centres undefined) | inactive: -2.18% |
| N#C/C(=C\c1ccc(N(CCBr)CCBr)cc1)C(N)=O | inactive: -7.04% |
| CC(=O)c1ccc(N2CC2c2ccncc2)cc1 (centres undefined) | inactive: 2.85% |
| C[C@@H]1C=CCP(=O)(Oc2ccccc2)O1 (some centres undefined) | inactive: 7.37% |
| C[C@H]1OP(=O)(Oc2ccccc2)C[C@@H]2O[C@@H]21 (some centres undefined) | inactive: -1.34% |
| Cc1ccccc1CN(C)C(=O)COC(=O)C(O)(c1ccccc1)c1ccccc1 | inactive: 7.09% |
| CC(=O)Nc1ccc(Oc2c([N+](=O)[O-])cc([N+](=O)[O-])cc2[N+](=O)[O-])cc1 | inactive: 2.86% |
| CC(=O)Nc1ccc([As](=O)(O)O)c(O)c1 | inactive: 1.44% |
| CCOc1ccc(C2=NCC(CBr)S2)cc1 (centres undefined) | inactive: 4.1% |
| O=P1(Nc2nc3ccc(Cl)cc3s2)COc2ccccc2O1 (centres undefined) | inactive: 0.144% |
| CCc1cc(O)c([N+](=O)[O-])c(C)c1[N+](=O)[O-] | inactive: 4.47% |
| CC(C)(C)C(=O)NC(Sc1ccccc1)C(Cl)(Cl)Cl (centres undefined) | inactive: 4.54% |
| Cc1ccc(OP(=O)(Nc2ccccn2)Oc2ccc(C)cc2)cc1 | inactive: 13.2% |
| CC(=O)NC(SC(=S)N(CC(C)C)CC(C)C)C(Cl)(Cl)Cl (centres undefined) | inactive: -6.24% |
| COC(=O)c1cc2c(s1)N=C(c1ccccc1)N(C)P2(=O)N1CCOCC1 (centres undefined) | inactive: 4.92% |
| CCC(=O)N1C2C3N(C(=O)CC)C1C1N(C(=O)CC)C(C(N1C(=O)CC)N3C(=O)CC)N2C(=O)CC | inactive: 1.85% |
| O=C(OC1CN2CCC1CC2)c1ccccc1 (centres undefined) | inactive: 6.4% |
| CN(C)C(=O)Oc1noc2ccccc12 | inactive: 0.0586% |
| O=c1c2cc([N+](=O)[O-])ccc2[nH]c2c([N+](=O)[O-])cc([N+](=O)[O-])cc12 | inactive: 2.5% |
| Cc1ccccc1OP(=O)(Nc1ccccn1)Oc1ccccc1C | inactive: 7.12% |
